Earlier results on 1 substance are cited in PMC3458435.

The data set has as its target CD80 (Homo sapiens) (UniProt P33681).

For orientation: Kd means the constant that tells how readily two partners part at equilibrium. Regarding CTLA-4 (from UniProt P16410), the Kd was 12 nM.
